Measured values taken from ChEMBL document CHEMBL1255193, “Structure-based optimization of pyrazolo-pyrimidine and -pyridine inhibitors of PI3-kinase” (Bioorg Med Chem Lett, 2010).

Sequences of proteins named here, by UniProt entry; tags and fusion partners are left off.
UniProt P42336, whole entry: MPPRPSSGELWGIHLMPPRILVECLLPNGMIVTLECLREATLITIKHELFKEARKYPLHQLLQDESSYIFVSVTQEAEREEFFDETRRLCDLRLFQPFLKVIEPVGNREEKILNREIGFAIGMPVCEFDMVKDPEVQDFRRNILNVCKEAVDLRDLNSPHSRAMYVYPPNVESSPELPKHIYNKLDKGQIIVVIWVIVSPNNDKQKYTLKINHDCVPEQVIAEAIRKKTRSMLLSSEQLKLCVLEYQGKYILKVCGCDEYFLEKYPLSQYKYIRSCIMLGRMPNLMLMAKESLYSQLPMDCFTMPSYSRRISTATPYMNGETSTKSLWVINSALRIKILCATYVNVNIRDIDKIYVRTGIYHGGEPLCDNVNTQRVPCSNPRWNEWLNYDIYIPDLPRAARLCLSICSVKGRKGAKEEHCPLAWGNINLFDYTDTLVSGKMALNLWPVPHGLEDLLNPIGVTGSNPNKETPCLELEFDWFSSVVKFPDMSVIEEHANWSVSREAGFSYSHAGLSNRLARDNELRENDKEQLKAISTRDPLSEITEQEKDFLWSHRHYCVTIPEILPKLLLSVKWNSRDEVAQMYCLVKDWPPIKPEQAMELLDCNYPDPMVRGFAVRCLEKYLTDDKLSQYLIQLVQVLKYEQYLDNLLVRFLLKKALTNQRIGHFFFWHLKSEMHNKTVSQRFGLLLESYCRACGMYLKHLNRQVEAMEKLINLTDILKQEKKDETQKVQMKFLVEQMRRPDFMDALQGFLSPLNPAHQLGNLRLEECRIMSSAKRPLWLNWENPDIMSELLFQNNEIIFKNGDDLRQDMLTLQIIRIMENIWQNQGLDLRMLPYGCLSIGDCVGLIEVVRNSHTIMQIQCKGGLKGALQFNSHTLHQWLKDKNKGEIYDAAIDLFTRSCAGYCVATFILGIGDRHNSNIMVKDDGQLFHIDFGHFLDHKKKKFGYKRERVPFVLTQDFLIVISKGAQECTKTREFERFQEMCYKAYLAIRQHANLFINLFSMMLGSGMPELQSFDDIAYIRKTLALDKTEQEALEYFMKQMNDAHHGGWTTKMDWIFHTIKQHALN

Target: Phosphatidylinositol 4,5-bisphosphate 3-kinase catalytic subunit alpha isoform (Homo sapiens, UniProt P42336)
Assay: Inhibition of PI3Kalpha

## COc1cccc(Nc2nc(N3CCS(=O)(=O)CC3)nc3c2cnn3C)c1
  IC50: 75 nM
